Source: patent KR20120084755A

Chains of the proteins cited; added tags and fusions are not shown. Residues count along the entry.
UniProt P03420, 26-574: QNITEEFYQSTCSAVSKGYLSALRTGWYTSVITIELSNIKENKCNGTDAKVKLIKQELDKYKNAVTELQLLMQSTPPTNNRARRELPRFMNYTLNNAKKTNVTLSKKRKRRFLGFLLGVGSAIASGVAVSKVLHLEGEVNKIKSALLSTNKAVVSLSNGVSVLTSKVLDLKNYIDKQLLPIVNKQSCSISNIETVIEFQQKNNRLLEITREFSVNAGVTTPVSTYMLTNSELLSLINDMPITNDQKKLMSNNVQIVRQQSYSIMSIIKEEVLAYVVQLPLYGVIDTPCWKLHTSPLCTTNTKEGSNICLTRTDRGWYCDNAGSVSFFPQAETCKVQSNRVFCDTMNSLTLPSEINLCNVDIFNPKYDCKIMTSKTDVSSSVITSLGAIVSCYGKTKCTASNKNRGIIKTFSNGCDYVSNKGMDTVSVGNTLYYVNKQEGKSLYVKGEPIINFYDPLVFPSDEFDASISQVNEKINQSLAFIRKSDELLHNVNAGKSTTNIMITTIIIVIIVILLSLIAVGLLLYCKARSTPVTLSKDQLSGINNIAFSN

Biological target: RSV A2 바이러스의 F 단백질 (Respiratory Syncytial Virus (RSV), strain A2) (UniProt P03420)
Assay: cell-based or functional assay

**Q.** For AM14 (antibody), which IC50, RSV A2 neutralisation on HEp2 cells (standard TCID50 culture assay) is on record?
**A.** 2.09 ng/㎖
